Measurements reported in ChEMBL document CHEMBL6087480, “In Search for Inhibitors of Human Aldo-Keto Reductase 1B10 (AKR1B10) as Novel Agents to Fight Cancer and Chemoresistance: Current State-of-the-Art and Prospects” (J Med Chem, 2025).
pIC50: −log10 of the molar value.

Molecular target: Aldo-keto reductase family 1 member B1 (Homo sapiens, UniProt P15121)
Experiment: Inhibition of AKR1B1 (unknown origin)

Cc1c2cc(O)c(=O)cc-2oc2cc(O)c(O)cc12
pIC50: 5.80
